Columns and labels:
[1] = biological target: T1, purified recombinant human HSF1 (HSF1 DNA binding domain) (Homo sapiens, UniProt Q00613); experiment: Melting temperature of HSF1 DBD with HSF1 degrader compounds (Sypro orange); conditions: read-out: ΔTm (° C.)
T1 sequence (Q00613 15-120): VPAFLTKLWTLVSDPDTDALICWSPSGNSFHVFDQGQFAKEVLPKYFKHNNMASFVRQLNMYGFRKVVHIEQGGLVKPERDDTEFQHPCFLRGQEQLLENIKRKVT
Protocol: The melting temperature (ΔTm) for purified recombinant human HSF1 (HSF1 DNA binding domain) was determined in the presence of HSF1 degrader compounds shown in Table 5 and compared to the solvent DMSO. Sypro orange dye was added to the HSF1 DBD (5 micromolar final concentration) in buffer, mixed and distributed to wells in 384 well microtiter plates. HSF1 degrader compound (12.5 micromolar) or DMSO solvent was added to three replicate wells per compound concentration, mixed and plates loaded into a Quant Studio thermnocycler and run on a temperature gradient from 25° C. to 85° C. with increments of 0.5° C. steps. Melting curves were obtained and analyzed using the ThermnoFisher Shift Software 1.4 fitted with a Boltzmann equation to determine the change in melting temperature of the protein in the presence of DMSO as compared to compound. The difference in the melting temperature under these two conditions was assigned as the change in melting temperature of ΔTm.

[2] = biological target: T2, recombinant HSF1 DNA-binding domain (DBD) (Homo sapiens, UniProt Q00613); experiment: Differential Scanning Fluorimetry (DSF), HSF1 DBD melting temperature; conditions: read-out: ΔTm
T2 sequence (Q00613 15-120): T1 sequence (Q00613 15-120)

In the case of `CN(C)CCc1ccc(NC(=O)Nc2ccc(C#N)cc2)cc1S(=O)(=O)C(F)(F)F` [Compound 287, 1-(4-cyanophenyl)-3-(4-(2-(dimethylamino)ethyl)-3-((trifluoromethyl)sulfonyl)phenyl)urea], the ΔTm at 12.5 µM [1] was 1.3 °C and the ΔTm at 25 µM [2] was 4.7 °C.
